Publication PMC10133546, “Simultaneous determination of multiple components in rat plasma by UHPLC-sMRM for pharmacokinetic studies after oral administration of Qingjin Yiqi Granules” (Frontiers in Pharmacology, 2023)
Each block holds one molecule with its values, some of them ahead of it.

Assays:
[1] = Stability of analytes in rat plasma (auto-sampler, freeze-thaw, room temperature, long-term); conditions: for Freeze thaw cycles Accuracy (%): three freeze-thaw cycles; for −80°C for 1month Accuracy (%): −80°C 1 month
[2] = Stability of the working solution (4°C for 1 month); format: physicochemical

SMILES: O=C(O)[C@H]1O[C@@H](Oc2cc3oc(-c4ccccc4)cc(=O)c3c(O)c2O)[C@H](O)[C@@H](O)[C@@H]1O [baicalin]
- Freeze thaw cycles Accuracy (%) ([1]; 15.6 ng/mL): 101.0%

SMILES: COc1ccc(/C=C/C(=O)O)cc1O [isoferulic acid]
- Working solution Accuracy (%) ([2]; 500 ng/mL): 101.0%
- Autosampler for 24 h Accuracy (%) ([1]; 50 ng/mL, autosampler 24 h): 97.1%
- Freeze thaw cycles Accuracy (%) ([1]; 200 ng/mL): 97.1%
- −80°C for 1month Accuracy (%) ([1]; 200 ng/mL): 105.0%
- Room temperature for 24 h Accuracy (%) ([1]; 500 ng/mL, room temperature 24 h): 97.1%

SMILES: O=C(O)c1ccc(O)c(O)c1 [protocatechuic acid]
- Freeze thaw cycles Accuracy (%) ([1]; 12.5 ng/mL): 101.0%

SMILES: C[C@@H]1O[C@@H](Oc2c(-c3ccc(O)c(O)c3)oc3cc(O)cc(O)c3c2=O)[C@H](O)[C@H](O)[C@H]1O [quercitrin]
- Working solution Accuracy (%) ([2]; 12.5 ng/mL): 101.0%

Next, values leading:

- Freeze thaw cycles Accuracy (%) ([1]; 50 ng/mL): 105.0%
- −80°C for 1month Accuracy (%) ([1]; 100 ng/mL): 102.0%
SMILES: O=C(/C=C/c1ccc(O)c(O)c1)O[C@@H]1C[C@](O)(C(=O)O)C[C@@H](O)[C@H]1O [chlorogenic acid]

- Working solution Accuracy (%) ([2]; 50 ng/mL): 97.6%
- Working solution Accuracy (%) ([2]; 100 ng/mL): 98.1%
SMILES: C[C@@]12C[C@@]3(O)O[C@@H](O1)[C@]1(COC(=O)c4ccccc4)[C@H]3C[C@@]12O[C@@H]1O[C@H](CO)[C@@H](O)[C@H](O)[C@H]1O [paeoniflorin]

- Freeze thaw cycles Accuracy (%) ([1]; 50 ng/mL): 105.0%
- −80°C for 1month Accuracy (%) ([1]; 50 ng/mL): 105.0%
SMILES: COC(=O)C1=CO[C@@H](O[C@@H]2O[C@H](CO)[C@@H](O)[C@H](O)[C@H]2O)[C@H]2[C@@H]1C(=O)C[C@@H]2C [verbenalin]
